Assay results: patent US20240288374A1 (priority 2023, published 2024)

Amino acid sequences for entries named in this document (tags omitted). Residues count along the entry.
UniProt P22629, 25-183, species assumed: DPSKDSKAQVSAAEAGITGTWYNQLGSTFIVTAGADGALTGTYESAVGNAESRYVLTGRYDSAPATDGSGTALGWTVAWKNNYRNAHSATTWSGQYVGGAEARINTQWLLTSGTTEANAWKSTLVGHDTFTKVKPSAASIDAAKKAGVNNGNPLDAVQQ

Target: Streptavidin (SAV) (Streptomyces avidinii, UniProt P22629)

O=C(O)CCCC[C@@H]1SC[C@@H]2NC(=O)N[C@@H]21 [biotin]
colorimetric response of detection solution to biotin: red to blue color changes
